The results in this text go back to PubChem BioAssay AID743279 (National Center for Advancing Translational Sciences (NCATS), 2014).

This is a selection; strong and weak results do not stand in their true shares. Inconclusive results are not listed. Calls of active or inactive are those of the source. Cut-off read from the data, not from the text of the source: active = activity change below about -50%; inconclusive = mostly about -30% to -49%; inactive = weaker than that.
% is set by controls: 0 for no effect and ±100 for the full control effect.

The assay in a line: qHTS for Inhibitors of Inflammasome Signaling: IL-1-beta AlphaLISA Primary Screen. The settings on record: THP-1 LPS/ATP IL-1B secretion, 16 h, at 57.5 µM, hits give low values. The source says:
Inflammasomes are a set of intracellular multi-protein complexes that enable autocatalytic activation of inflammatory caspases and drive the innate immune response to counter harmful agents. […] A qHTS assay, based on AlphaLISA technology, was developed to screen the Molecular Libraries Small Molecule Repository (MLSMR) to look for novel inflammasome inhibitors. The assay detects IL-1B using AlphaLISA anti-IL-1B acceptor and donor beads. A decreased emission signal, indicating reduced IL-1B secretion, is the desired outcome for this assay. NIH Chemical Genomics Center [NCGC] NIH Molecular Libraries Probe Centers Network [MLPCN] MLPCN Grant: MH095513 Assay Provider: Shyam Biswal Ph.D., Johns Hopkins University Immunity. 2012 Jul 27;37(1):85-95. PMID: 22819042 [2] Curr Pharm Des. 2012;18(16):2320-8. PMID: 22390695
Three microliters containing 3000 THP-1 cells were dispensed into the wells of solid, white, tissue culture treated Greiner 1,536-well plates. Library compounds and positive control, Glyburide, were pin-transferred (23 nL) by a Kalypsys pin-tool equipped with a 1,536-pin array, resulting in final compound concentration ranges of 2.5 nM to 57.5 uM. After 1 hr of cell culture incubation (37 °C, 5% CO2), 1 microL of 1 microg/mL lipopolysaccharide (250 ng/mL, final) and 5 mM ATP (1.25 mM, final) were added to stimulate the cells. After 16 hr of cell culture incubation with the compounds, 1.5 uL of anti-IL-1B acceptor beads (6 ug/mL, final) and biotinylated antibody (0.6 nM, final) were added to the plate, followed by a 1 hr incubation at ambient temperature. To detect the secreted IL-1B, 1.5 uL of AlphaLISA SA-Donor beads (24 ug/mL, final) were added, followed by 30 min of incubation in the dark at ambient temperature. The AlphaLISA signal was read by a PerkinElmer EnVision plate reader with an ultrasensitive luminescence detector and 1536 Plate HTS AlphaScreen aperture (excitation of 680nm and emission of 615nm).
Consider `O=P(Nc1nccs1)(c1ccccc1)c1ccccc1`, for which the activity change is inactive: 19.3%.
As for `CC(C)C(=O)NC(Sc1ccccc1)C(Cl)(Cl)Cl` (configuration not stated), the activity change was inactive: 5.88%.
As for `c1nnnn1CCn1cnnn1`, the figure is inactive: 12%; as for `CN(C)C1(CNC(=O)c2ccc(Cl)c(S(N)(=O)=O)c2)CCCCC1`, inactive: 9.36%; as for `O=P(Nc1ccccn1)(c1ccc(Br)cc1)c1ccc(Br)cc1`, inactive: -9.8%.
With `Nc1ccc(CCCCOc2ccccc2)cc1`, the activity change is inactive: -15.2%.
On to `COc1ccc(N)c([N+](=O)[O-])c1[N+](=O)[O-]`, for which the activity change is inactive: -6.59%.
As to `O=P(Nc1nc2ccccc2s1)(c1ccccc1)c1ccccc1`, the activity change was inactive: 1.41%.
Take `C[C@H]1OP(=O)(Oc2ccccc2)[C@H](O)[C@H](O)[C@H]1N=[N+]=[N-]` (some centres not stated): the activity change was inactive: 10.3%.
Consider `O=[As](O)(c1ccccc1)c1ccc(O)cc1`, for which the activity change is inactive: -8.62%.
In the case of `CC(=O)NC(SC(=S)N(C)C)C(Cl)(Cl)Cl` (configuration not stated), the activity change is active: -52.4%.
As for `O=[N+]([O-])c1ncn(CCn2cnc([N+](=O)[O-])n2)n1`, the figure is inactive: 11.7%.
As for `O=[N+]([O-])c1ccc(O)c(/C=N/Nc2ccc([N+](=O)[O-])cc2[N+](=O)[O-])c1`, the figure is inactive: -4.84%.
Regarding `O=C(OC1CN2CCC1CC2)c1cccc(Cl)c1` (configuration not stated), the activity change is inactive: 11%.
As for `Nc1ccc([As](=O)(O)c2ccc([N+](=O)[O-])cc2)cc1`, the figure is inactive: -6.77%; as for `C(Cc1nn[nH]n1)Cc1nn[nH]n1`, inactive: 14.3%; as for `c1ccc(-c2nn[nH]n2)c(-c2nn[nH]n2)c1`, inactive: 22.7%.
As for `O=C(NC1CCS(=O)(=O)C1)NP(=S)(Oc1ccccc1)Oc1ccccc1` (configuration not stated), the activity change was inactive: 7.21%.
On to `CCNC(=S)/N=C(\N)N[N+](=O)[O-]`, for which the activity change is inactive: 0.747%.
As for `O=P1(N(CCCl)CCCl)OCCC2CCCCN21` (configuration not stated), the figure is inactive: 13%; as for `O=C(OC1CN2CCC1CC2)c1ccccc1` (configuration not stated), inactive: -10.8%.
As for `CCC(=O)N1C2C3N(C(=O)CC)C1C1N(C(=O)CC)C(C(N1C(=O)CC)N3C(=O)CC)N2C(=O)CC`, the figure is inactive: 5.57%.
As for `COC(=O)c1cc2c(s1)N=C(c1ccccc1)N(C)P2(=O)N1CCOCC1` (configuration not stated), the figure is inactive: 3.54%.
Consider `CC(=O)NC(SC(=S)N(CC(C)C)CC(C)C)C(Cl)(Cl)Cl` (configuration not stated), for which the activity change was inactive: 7.82%.
As for `Cc1ccc(OP(=O)(Nc2ccccn2)Oc2ccc(C)cc2)cc1`, the figure is inactive: -19.6%.
As for `Cc1ccccc1OP(=O)(Nc1ccccn1)Oc1ccccc1C`, the figure is inactive: 7.96%; as for `CC(NC(=O)COC(=O)C(O)(c1ccccc1)c1ccccc1)c1ccccc1` (configuration not stated), inactive: 9.01%; as for `CN(C)C(=O)Oc1noc2ccccc12`, inactive: 7.97%.
On to `O=c1c2cc([N+](=O)[O-])ccc2[nH]c2c([N+](=O)[O-])cc([N+](=O)[O-])cc12`, for which the activity change is active: -93.8%.
As for `O=P1(Nc2nc3ccc(Cl)cc3s2)COc2ccccc2O1` (configuration not stated), the figure is inactive: 28.5%.
As for `CCOc1ccc(C2=NCC(CBr)S2)cc1` (configuration not stated), the figure is inactive: 4.59%; as for `CC(C)(C)C(=O)NC(Sc1ccccc1)C(Cl)(Cl)Cl` (configuration not stated), inactive: 0%; as for `CCc1cc(O)c([N+](=O)[O-])c(C)c1[N+](=O)[O-]`, inactive: 12.6%.
As for `C[C@@H]1C=CCP(=O)(Oc2ccccc2)O1` (some centres not stated), the figure is inactive: 27%; as for `C[C@H]1OP(=O)(Oc2ccccc2)C[C@@H]2O[C@@H]21` (some centres not stated), inactive: 0%.
In the case of `N#C/C(=C\c1ccc(N(CCBr)CCBr)cc1)C(N)=O`, the activity change is inactive: 4.88%.
As for `CC(=O)c1ccc(N2CC2c2ccncc2)cc1` (configuration not stated), the figure is inactive: 14.9%; as for `COC(=O)C1(C)COP(=O)(NCc2ccccc2)OC1` (configuration not stated), inactive: 22.3%.
On to `CC(=O)Nc1ccc([As](=O)(O)O)c(O)c1`, for which the activity change was inactive: -6.1%.
As for `CC(=O)Nc1ccc(Oc2c([N+](=O)[O-])cc([N+](=O)[O-])cc2[N+](=O)[O-])cc1`, the figure is inactive: 15%.
As for `Cc1ccc(N/C(=N/P(=O)(N2CCOCC2)N2CCOCC2)N2CCOCC2)cc1`, the figure is inactive: 11.3%.
In the case of `NC(=O)c1cc([N+](=O)[O-])cc([N+](=O)[O-])c1N`, the activity change is inactive: 20.6%.
As for `Clc1ccc(Cl)c(NC2=NCC(CBr)S2)c1` (configuration not stated), the figure is inactive: -11.4%.
As for `CN1CCCC(OC(=O)C(c2ccccc2)c2ccccc2)C1` (configuration not stated), the figure is inactive: -15%; as for `COc1ccccc1OP(=O)(Nc1ccc(C)cn1)Oc1ccccc1OC`, inactive: 27%.
For `Cc1ccc(OP(=O)(Nc2nccs2)Oc2ccc(C)cc2)cc1`, the activity change was inactive: 26.1%.
For the molecule `Oc1ccccc1CNc1ccccn1`, the activity change was inactive: -7.04%.
Consider `O=C(NC(Sc1ccncn1)C(Cl)(Cl)Cl)c1ccccc1` (configuration not stated), for which the activity change was inactive: 19.4%.
As for `CC(C)CC(=O)NC(Sc1ccc(Cl)cc1)C(Cl)(Cl)Cl` (configuration not stated), the figure is inactive: -10.3%.
As for `Nc1cc(N)c2nonc2c1[N+](=O)[O-]`, the figure is inactive: -8.5%.
On to `O=[N+]([O-])C1C(O)C(O)C([N+](=O)[O-])C(O)C1O` (configuration not stated), for which the activity change was inactive: 0%.
As for `CN(C)P(=O)(N(C)C)n1c(Nc2ccccc2)nnc1-c1ccccc1`, the figure is inactive: -6.13%.
As for `O=C(O)c1ccccc1[As](=O)(O)O`, the figure is inactive: -15%; as for `CC(=O)Nc1ccc([As](=O)(O)O)cc1`, inactive: 0%; as for `CCCC1OP(N)(=O)OCC1CC` (configuration not stated), inactive: 16.8%.
As for `CCOP(=O)(Nc1ccccc1)OCC`, the figure is inactive: 19.6%.
For the molecule `Cc1cc(SC(NC(=O)c2ccc(F)cc2)C(Cl)(Cl)Cl)ncn1` (configuration not stated), the activity change was inactive: 20.9%.
Regarding `Cc1ccc(NP(=O)(Oc2ccccc2F)Oc2ccccc2F)nc1`, the activity change is inactive: 0.0402%.
Regarding `Nc1cccc2ccc([As](=O)(O)O)cc12`, the activity change was inactive: 12.8%.
As for `CCN(N=Nc1nonc1N)c1nonc1N`, the figure is inactive: 3.95%; as for `O=P1(N(CCCl)CCCl)OCCCS1` (configuration not stated), inactive: 15.3%.
As for `O=C(Nc1cc([As](=O)(O)O)ccc1O)c1ccccc1`, the activity change is inactive: 12.3%.
With `O=[N+]([O-])c1ncn(CCn2ncnc2[N+](=O)[O-])n1`, the activity change was inactive: 23.1%.
Regarding `CC(C)(C)C(=O)NC(Sc1ccncn1)C(Cl)(Cl)Cl` (configuration not stated), the activity change is inactive: 10.9%.
As for `O=C(O)CNc1ccc([As](=O)(O)O)cc1`, the figure is inactive: 6.16%; as for `O=[N+]([O-])c1cccc(NC2=NCC(CBr)S2)c1` (configuration not stated), inactive: 0%; as for `COC(=O)C1(C)COP(=O)(Nc2ccccc2)OC1` (configuration not stated), inactive: 13.9%.
